Assay results from paper PMC10318527, “Utilization of dietary mixed-linkage β-glucans by the Firmicute Blautia producta” (The Journal of Biological Chemistry, 2023).

Experiments:
Assay in all cases: purified protein, by the assay type
Conditions in all cases: other: PAHBAH assay, 100 mM HEPES pH 6.5, 37 °C
[1] = substrate: OC[C@H]1O[C@@H](O[C@H]2[C@H](O)[C@@H](O)[C@H](O[C@H]3[C@H](O)[C@@H](CO)OC(O)[C@@H]3O)O[C@@H]2CO)[C@H](O)[C@@H](O)[C@@H]1O; assay type: biochemical, Blautia producta ATCC 27340
[2] = substrate: OC[C@H]1O[C@@H](O[C@@H]2[C@@H](O)[C@H](O[C@H]3[C@H](O)[C@@H](CO)OC(O)[C@@H]3O)O[C@H](CO)[C@H]2O)[C@H](O)[C@@H](O)[C@@H]1O
[3] = substrate: OC[C@H]1O[C@@H](O[C@H]2[C@H](O)[C@@H](CO)OC(O)[C@@H]2O)[C@H](O)[C@@H](O)[C@@H]1O

B1: BpGH3-AR8MLG (Blautia producta ATCC 27340 = DSM 2950) (protein)
chain: MKLKNKTFTGTTSNEVTARETENRKLARLAAAEGFVLLKNQDHILPLKKGIKLGLYGAGAVKTIKGGTGSGDVNERECVNICQGLENAGYEITSSAWLEAYASLYEETRLKWRDEILGKLEAYDNNFFEAYSTTPFFMPCGNPVDVDKASDDGADTAIYVLSRIAGENADRHDTEGDYYISAEEKALIAQLSKAYDSLVLVINTGGLVDLAFVQEFDNIKAVLQFVQAGQEGGSAFADVVSGKVTPSGKLADTWAFDYKDYPNSETFSFKNGDVNTEKYQEGIYVGYRYFDTFDVPVLYPFGFGLSYTDFMICTEEIKTVNTESGKPEIAVTVKVTNTGDTYCGKEVVQIYVSCPQGKLAKEYRRLAGFAKTEELKPGESCRITITFPVYQLASFHEENAAWVLEEGTYGVWTGNSIQGAKLAGSLCVDKDAILVQCEHICPVKEELTELTPDSSRMKEKEAAWLEKAAGLPSVHIDAEKITKETVVYTELPERFTGRAGEIVESLSVEQLIQMSAGDPGKGQDAVLGSAGITVPGAAAETSSAASGEPWNLPSIALADGPAGLRLNQKYQVVDGEIVRENFMKSIEKGFFAEPSPEVGTAYYQFCTAIPVGTLLAQTWNAELVKEVGEMIGKEMELFQVTLWLAPGMNIHRNPLCGRNFEYYSEDPLLSGIMASAMTLGVQKVPGCGTTIKHFACNNQEDNRMGSDSVLSERALREIYLKGFEIAVKNSQPMSIMTSYNMINGVHAANCYDICTRAARDEWEFAGAVMTDWTTTFASPRGECTAAGCMRAGNDMVMPGIPKDHENIRRELEEGTLDIRELKRCICNTVNLILQSNRYENAVSYLEQFEGLDAYLSVERSN
- Km [1]: 0.24 ± 0.04 mM

B2: BpGH3-X62MLG (Blautia producta ATCC 27340 = DSM 2950) (protein)
chain: MENKYVIDWDKYAALARRAAAEGAVLLKNDNQALPLKKETISVFGRIQYHYYKSGTGSGGLVNAKYVIGIMDALQEEKDLTLDEELAAVYRSWIMEHPFDQGSGWAQEPWSQEEMPLDEKMVEEAAARSDTAVIVIGRTAGEDRDASAEKGSYLLTDLEEDMLEKVCRLFKKSIVVLNVGNIIDMKWVEKYNPSAVLYTWQGGQEGGHSAADVLTGRVNPCGKLADTIARDISDYPSTENFGGGDFDIYAEDIYVGYRYFETFARDKVLYPFGFGLSYTSFRTECGPIKRLDGETSVCVKVTNAGSCAGKEVVQMYVEPPQGKLGKPSRNLAAFAKTKCLQPGESQELVLKVTDYYISSYDDSGAAGFKSCYVLENGSYGIYVGTDVRGAEAAGSFYIPETIATSVCTEAAGPVRQFKRMRAKEGGALAWEEAPLRTHKMQERIHKEILPDITYTGNKGFTLGEVFDRDISLNEFLAQLSEEDLCCIVRGEGMCSPKVTPGTAAAFGGVTESLQKLGIPCGCCADGPSGIRMDCGTPAFSMPNGTCLACTFDTELSEELYEMEGAELRKNRIDTLLGPGINIHRNPLNGRNFEYFSEDPYLTGIMASAQLKGMARFGVTGTIKHFAANNQEYHRRLLDSVMSERALREIYLRGFEIAVKEGKAYSIMTTYGAINGLWTASNYDLLTTILRKEWGFEGMVMTDWWADLNDEGGQPSTDNLAAMVRSQNDVYMVTQDSLNNKDNLMESLKNGTLKRGALLRCAGNICRMLMRSPVMERTLGRMSEEEKKAGEVMAGEDKVDFDITYHKVQGSLVLDGTKIDTSKGNSVVYGILLDTFGSYKVRLKVKADSGELAQIPVSVFANGHLEGTVTINGTKGEWIEIEKTIGPLFGPHNYVRLYFAQSGMQIQTVTIELQEKMDRGF
- Km [2]: 0.24 ± 0.04 mM
- Km [3]: 0.24 ± 0.02 mM
